# Experimental data from patent publication US20250134869A1, “Pyrrolo[2,3-d]pyrimidinyl, Pyrrolo[2,3-b]pyrazinyl and Pyrrolo[2,3-d]pyridinyl Acryla-mides” (Pfizer Inc, priority 2021, published 2025).
# Chains of the proteins cited; added tags and fusions are not shown.
# UniProt P52333, whole entry, species assumed: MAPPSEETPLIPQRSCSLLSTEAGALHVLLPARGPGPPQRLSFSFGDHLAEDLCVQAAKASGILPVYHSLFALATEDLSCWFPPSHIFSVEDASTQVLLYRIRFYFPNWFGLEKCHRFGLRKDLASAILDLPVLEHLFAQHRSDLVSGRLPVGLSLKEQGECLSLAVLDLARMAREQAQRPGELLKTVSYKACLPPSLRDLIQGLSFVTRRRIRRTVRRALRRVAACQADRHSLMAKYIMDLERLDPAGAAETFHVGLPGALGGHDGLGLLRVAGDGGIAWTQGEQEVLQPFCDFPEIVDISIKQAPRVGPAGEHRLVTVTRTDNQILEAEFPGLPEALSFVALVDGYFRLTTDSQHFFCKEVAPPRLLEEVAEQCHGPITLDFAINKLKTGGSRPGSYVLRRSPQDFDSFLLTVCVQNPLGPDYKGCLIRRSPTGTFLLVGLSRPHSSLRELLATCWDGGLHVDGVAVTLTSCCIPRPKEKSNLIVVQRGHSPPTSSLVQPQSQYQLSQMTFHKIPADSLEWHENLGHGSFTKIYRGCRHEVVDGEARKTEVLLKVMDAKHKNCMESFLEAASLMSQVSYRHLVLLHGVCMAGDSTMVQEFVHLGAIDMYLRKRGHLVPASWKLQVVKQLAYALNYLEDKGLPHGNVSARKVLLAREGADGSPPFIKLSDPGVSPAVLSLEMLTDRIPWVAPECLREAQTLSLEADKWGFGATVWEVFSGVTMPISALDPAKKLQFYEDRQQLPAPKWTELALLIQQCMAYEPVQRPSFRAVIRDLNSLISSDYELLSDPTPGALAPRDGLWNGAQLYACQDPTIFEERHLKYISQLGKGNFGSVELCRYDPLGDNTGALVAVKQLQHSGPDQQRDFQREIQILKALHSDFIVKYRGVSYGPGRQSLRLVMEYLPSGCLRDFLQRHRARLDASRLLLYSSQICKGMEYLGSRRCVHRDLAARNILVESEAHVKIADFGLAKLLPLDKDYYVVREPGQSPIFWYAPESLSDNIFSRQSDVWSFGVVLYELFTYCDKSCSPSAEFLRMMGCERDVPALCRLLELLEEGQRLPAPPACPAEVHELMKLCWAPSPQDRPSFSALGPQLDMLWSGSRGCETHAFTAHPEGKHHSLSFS
# Where two headings read alike, the source gives them in different places.
# Biological target: JAK3 enzyme (Homo sapiens (Human), UniProt P52333)
# Assay: JAK Caliper Enzyme Assay at 4 μM or 1 mM ATP
# Assay type: biochemical
# Description: JAK Caliper Enzyme Assay at […] or 1 mM ATP
# Test article was solubilized in dimethyl sulfoxide (DMSO) to a stock concentration of 30 mM. An 11-point half log dilution series was created in DMSO with a top concentration of 600 μM. […] The compound plates were diluted 1 to 60 resulting in a top final assay compound concentration of 10 μM and a 2% DMSO concentration.
# Test article and assay controls were added to a 384-well plate. Reaction mixtures contained 20 mM HEPES, pH 7.4, 10 mM magnesium chloride, 0.01% bovine serum albumin (BSA), 0.0005% Tween […] or 1 mM ATP and […] peptide substrate. […] The assays were initiated by the addition 1 nM JAK3 enzyme and were incubated at room temperature 75 minutes for JAK3. Enzyme concentrations and incubation times were optimized for each new enzyme preps and were modified slightly over time to ensure 20%-30% phosphorylation. The assays were stopped with a final concentration of 10 mM EDTA, 0.1% Coating Reagent and 100 mM HEPES, pH=7.4. The assay plates were placed on a Caliper Life Science Lab Chip 3000 (LC3000) instrument, and each well was sampled using appropriate separation conditions to measure the unphosphorylated and phosphorylated peptide.
# [1] = read-out: JAK3 (1 mM ATP) IC50, 1 mM ATP
# [2] = read-out: JAK3 (4 μM ATP) IC50, 4 μM ATP
Compound,IC50 [1],IC50 [2]
"C=CC(=O)N1CCC(Oc2cnc3[nH]cc(-c4cnc(N5CCOCC5)nc4)c3n2)CC1 [Example 223, 1-[4-({7-[2-(morpholin-4-yl)pyrimidin-5-yl]-5H-pyrrolo[2,3-b]pyrazin-2-yl}oxy)piperidin-1-yl]prop-2-en-1-one]",3360 nM,
C=CC(=O)N1CCC(Nc2cnc3[nH]cc(C(=O)NC(C)(C)C)c3n2)C[C@@H]1C (mixture of isomers) [Example 340],1390 nM,
"C=CC(=O)N1CCC[C@@H](Nc2ncnc3[nH]cc(-c4ccc(OCC)nc4)c23)C1 [Example 33, 1-[(3R)-3-{[5-(6-ethoxypyridin-3-yl)-7H-pyrrolo[2,3-d]pyrimidin-4-yl]amino}piperidin-1-yl]prop-2-en-1-one]",3810 nM,
"C=CC(=O)N1CCN(c2cnc3[nH]ccc3n2)CC1 [Example 172, 1-[4-(5H-pyrrolo[2,3-b]pyrazin-2-yl)piperazin-1-yl]prop-2-en-1-one]",2230 nM,
"C=CC(=O)N1CCC(Oc2cnc3[nH]cc(-c4c(C)nn(C)c4C)c3n2)CC1 [Example 221, 1-(4-{[7-(1,3,5-trimethyl-1H-pyrazol-4-yl)-5H-pyrrolo[2,3-b]pyrazin-2-yl]oxy}piperidin-1-yl)prop-2-en-1-one]",1480 nM,
"C=CC(=O)N(C)[C@@H]1CCN(c2cnc3[nH]cc(C(=O)NC(C)C)c3n2)C1 [Example 190, 2-{(3R)-3-[acryloyl(methyl)amino]pyrrolidin-1-yl}-N-(propan-2-yl)-5H-pyrrolo[2,3-b]pyrazine-7-carboxamide]",1010 nM,
"C=CC(=O)N[C@@H]1CCN(c2cnc3[nH]cc(C(=O)NC(C)C)c3n2)C1 [Example 181, 2-[(3R)-3-(acryloylamino)pyrrolidin-1-yl]-N-(propan-2-yl)-5H-pyrrolo[2,3-b]pyrazine-7-carboxamide]",1020 nM,
"O=C(/C=C/C(F)F)N1CC[C@@H]2CCN(c3ncnc4[nH]ccc34)[C@@H]2C1 [Example 80, (2E)-4,4-difluoro-1-[(3aS,7aS)-1-(7H-pyrrolo[2,3-d]pyrimidin-4-yl)octahydro-6H-pyrrolo[2,3-c]pyrdin-6-yl]but-2-en-1-one]",2940 nM,
"CC(C)=C(C#N)C(=O)N1CCCC(Nc2ncnc3[nH]ccc23)C1 (stereo not drawn) [Example 96, 3-methyl-2-{[3-(7H-pyrrolo[2,3-d]pyrimidin-4-ylamino)piperidin-1-yl]carbonyl}but-2-enenitrile]",,2740 nM
"C=CC(=O)N1CC[C@@H]2CCN(c3nc(N)nc4[nH]ccc34)[C@@H]2C1 [Example 73, 1-[(3aS,7aS)-1-(2-Amino-7H-pyrrolo[2,3-d]pyrimidin-4-yl)octahydro-6H-pyrrolo[2,3-c]pyridin-6-yl]prop-2-en-1-one]",1960 nM,
"C=C(CN(C)C)C(=O)N1CCC[C@@H](Nc2ncnc3[nH]ccc23)C1 [Example 92, 2-[(dimethylamino)methyl]-1-[(3R)-3-(7H-pyrrolo[2,3-d]pyrimidin-4-ylamino)piperidin-1-yl]prop-2-en-1-one]",,4750 nM
"C/C=C/C(=O)N1CCC[C@@H](Nc2ncnc3[nH]cc(CCO)c23)C1 [Example 151, (2E)-1-[(3R)-3-{[5-(2-hydroxyethyl)-7H-pyrrolo[2,3-d]pyrimidin-4-yl]amino]piperidin-1-yl]but-2-en-1-one]",,3490 nM
"C=CC(=O)NC1CCN(c2cnc3[nH]cc(C(=O)NC(C)C)c3n2)C1 (stereo not drawn) [Example 195, 2-[3-(acryloylamino)pyrrolidin-1-yl]-N-(propan-2-yl)-5H-pyrrolo[2,3-b]pyrazine-7-carboxamide]",970 nM,
"O=C(/C=C/C(F)(F)F)N1CC[C@@H]2CCN(c3ncnc4[nH]ccc34)[C@@H]2C1 [Example 81, (2E)-4,4,4-trifluoro-1-[(3aS,7aS)-1-(7H-pyrrolo[2,3-d]pyrimidin-4-yl)octahydro-6H-pyrrolo[2,3-c]pyridin-6-yl]but-2-en-1-one]",3750 nM,
"C=CC(=O)N1CC2(CCN(c3cnc4[nH]cc(C(=O)NC(C)C)c4n3)C2)C1 [Example 296, 2-(2-acryloyl-2,6-diazaspiro[3.4]oct-6-yl)-N-(propan-2-yl)-5H-pyrrolo[2,3-b]pyrazine-7-carboxamide]",4200 nM,
